The chains behind the UniProt entries cited, without tags or fusion partners. Where a name states a change or a piece, a line headed by the entry shows the natural chain unless it says otherwise.
UniProt P41597: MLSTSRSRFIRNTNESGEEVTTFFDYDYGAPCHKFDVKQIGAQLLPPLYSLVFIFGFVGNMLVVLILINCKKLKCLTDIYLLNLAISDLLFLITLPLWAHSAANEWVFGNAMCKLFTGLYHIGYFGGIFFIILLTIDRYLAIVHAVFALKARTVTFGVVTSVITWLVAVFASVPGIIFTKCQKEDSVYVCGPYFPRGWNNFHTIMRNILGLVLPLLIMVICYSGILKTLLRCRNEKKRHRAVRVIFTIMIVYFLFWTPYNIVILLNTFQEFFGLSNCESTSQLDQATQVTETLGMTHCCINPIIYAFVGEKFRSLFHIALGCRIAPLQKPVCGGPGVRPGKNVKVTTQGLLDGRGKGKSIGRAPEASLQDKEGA

In ChEMBL document CHEMBL5230126, “Cyclic tailor-made amino acids in the design of modern pharmaceuticals” (Eur J Med Chem, 2020):

Target: C-C chemokine receptor type 2 (Homo sapiens, UniProt P41597)
Test: Antagonist activity at CCR2 (unknown origin)

IC50: 1.4 nM
Compound: CC(=O)N[C@@H]1C[C@H](N(C)C(C)C)CC[C@@H]1N1CC[C@H](Nc2ncnc3ccc(C(F)(F)F)cc23)C1=O
